For orientation: IC50 means the concentration that inhibits the measured activity by half.

Amino acid sequences for entries named in this document (tags omitted). Residues count along the entry.
UniProt Q9NR97, 27-1041 limits assumed: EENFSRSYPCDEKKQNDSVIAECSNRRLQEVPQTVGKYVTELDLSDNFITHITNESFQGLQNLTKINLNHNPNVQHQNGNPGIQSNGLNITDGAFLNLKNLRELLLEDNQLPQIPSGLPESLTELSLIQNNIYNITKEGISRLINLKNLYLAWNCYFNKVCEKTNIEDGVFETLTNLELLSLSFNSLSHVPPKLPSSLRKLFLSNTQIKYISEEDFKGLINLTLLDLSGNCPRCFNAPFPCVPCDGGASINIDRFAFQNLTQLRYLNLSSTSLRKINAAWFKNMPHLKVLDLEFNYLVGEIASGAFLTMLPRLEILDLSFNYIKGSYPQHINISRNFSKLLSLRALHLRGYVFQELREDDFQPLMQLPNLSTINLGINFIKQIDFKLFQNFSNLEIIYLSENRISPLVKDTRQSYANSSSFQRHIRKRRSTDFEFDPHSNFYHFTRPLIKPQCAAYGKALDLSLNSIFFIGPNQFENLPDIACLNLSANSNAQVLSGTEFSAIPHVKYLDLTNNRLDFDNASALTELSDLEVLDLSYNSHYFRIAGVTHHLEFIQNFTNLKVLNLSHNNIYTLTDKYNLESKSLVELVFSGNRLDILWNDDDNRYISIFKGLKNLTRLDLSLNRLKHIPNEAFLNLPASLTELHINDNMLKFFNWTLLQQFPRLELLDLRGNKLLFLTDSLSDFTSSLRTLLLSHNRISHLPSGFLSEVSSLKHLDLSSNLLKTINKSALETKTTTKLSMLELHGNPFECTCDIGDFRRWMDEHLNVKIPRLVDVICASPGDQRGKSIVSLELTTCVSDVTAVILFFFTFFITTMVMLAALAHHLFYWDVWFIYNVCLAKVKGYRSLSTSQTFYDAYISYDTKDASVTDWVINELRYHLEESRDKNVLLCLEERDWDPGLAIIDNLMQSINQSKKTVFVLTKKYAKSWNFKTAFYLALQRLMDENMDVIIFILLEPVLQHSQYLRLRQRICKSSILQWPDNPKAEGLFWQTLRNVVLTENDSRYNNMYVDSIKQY
UniProt Q9NYK1, 27-1049 limits assumed: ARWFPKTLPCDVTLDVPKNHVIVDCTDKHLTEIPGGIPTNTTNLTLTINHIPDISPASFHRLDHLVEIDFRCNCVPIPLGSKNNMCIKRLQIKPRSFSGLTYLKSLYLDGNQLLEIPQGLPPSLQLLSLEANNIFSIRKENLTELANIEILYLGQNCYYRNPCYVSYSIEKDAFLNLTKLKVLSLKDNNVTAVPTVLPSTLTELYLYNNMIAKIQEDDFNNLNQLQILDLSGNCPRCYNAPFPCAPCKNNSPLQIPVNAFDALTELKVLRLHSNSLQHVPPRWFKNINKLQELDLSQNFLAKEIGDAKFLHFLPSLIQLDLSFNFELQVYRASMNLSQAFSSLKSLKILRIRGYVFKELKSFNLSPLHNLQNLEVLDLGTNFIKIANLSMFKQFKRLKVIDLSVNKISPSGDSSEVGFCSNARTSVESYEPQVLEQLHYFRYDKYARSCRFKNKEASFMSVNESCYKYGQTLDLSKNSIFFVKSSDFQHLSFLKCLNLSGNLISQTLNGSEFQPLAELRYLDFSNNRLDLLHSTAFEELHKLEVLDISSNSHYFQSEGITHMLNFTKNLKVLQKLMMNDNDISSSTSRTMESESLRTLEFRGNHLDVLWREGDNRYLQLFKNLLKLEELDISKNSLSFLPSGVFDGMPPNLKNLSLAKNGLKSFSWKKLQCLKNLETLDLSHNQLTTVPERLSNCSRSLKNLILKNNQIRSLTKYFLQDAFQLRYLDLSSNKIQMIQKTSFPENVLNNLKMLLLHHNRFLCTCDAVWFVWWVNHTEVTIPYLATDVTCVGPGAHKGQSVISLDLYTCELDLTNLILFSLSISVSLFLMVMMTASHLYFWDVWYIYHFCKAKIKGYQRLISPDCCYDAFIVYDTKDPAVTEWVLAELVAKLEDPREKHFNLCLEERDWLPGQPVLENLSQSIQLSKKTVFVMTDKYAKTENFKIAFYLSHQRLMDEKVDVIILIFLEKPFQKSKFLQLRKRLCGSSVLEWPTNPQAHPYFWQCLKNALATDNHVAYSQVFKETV
UniProt Q9NR96, 26-1032 limits assumed: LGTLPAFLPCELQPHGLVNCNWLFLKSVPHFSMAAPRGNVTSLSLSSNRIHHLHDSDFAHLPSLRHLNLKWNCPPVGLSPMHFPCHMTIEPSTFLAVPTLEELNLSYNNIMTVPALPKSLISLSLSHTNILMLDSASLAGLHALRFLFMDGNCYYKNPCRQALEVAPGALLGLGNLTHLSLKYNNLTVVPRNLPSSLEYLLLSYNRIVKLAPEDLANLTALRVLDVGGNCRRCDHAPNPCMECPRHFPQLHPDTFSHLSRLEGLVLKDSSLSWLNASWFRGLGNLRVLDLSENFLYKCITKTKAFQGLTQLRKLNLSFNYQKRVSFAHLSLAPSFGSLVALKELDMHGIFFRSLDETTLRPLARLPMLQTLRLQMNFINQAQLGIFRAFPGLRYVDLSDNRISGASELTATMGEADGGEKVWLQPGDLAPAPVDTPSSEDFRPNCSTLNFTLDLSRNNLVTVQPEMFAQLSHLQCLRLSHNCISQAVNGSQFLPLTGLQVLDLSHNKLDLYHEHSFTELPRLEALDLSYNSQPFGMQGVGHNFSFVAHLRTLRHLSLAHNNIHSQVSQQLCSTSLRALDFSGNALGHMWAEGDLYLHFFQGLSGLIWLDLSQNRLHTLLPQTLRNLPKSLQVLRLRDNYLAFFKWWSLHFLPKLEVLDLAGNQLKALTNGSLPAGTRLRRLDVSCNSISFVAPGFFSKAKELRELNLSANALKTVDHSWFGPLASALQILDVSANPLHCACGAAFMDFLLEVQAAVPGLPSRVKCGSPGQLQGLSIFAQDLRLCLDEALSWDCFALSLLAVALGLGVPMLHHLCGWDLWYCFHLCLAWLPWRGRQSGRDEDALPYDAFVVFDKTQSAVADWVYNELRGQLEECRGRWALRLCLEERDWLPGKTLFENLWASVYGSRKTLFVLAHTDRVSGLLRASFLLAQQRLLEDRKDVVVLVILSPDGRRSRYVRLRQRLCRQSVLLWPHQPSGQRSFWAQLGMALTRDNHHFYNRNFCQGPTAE

Each structure is given as a SMILES string.

Five molecules from patent US11878975B2, “Substituted indole compounds useful as TLR inhibitors” (BRISTOL-MYERS SQUIBB COMPANY, priority 2017, dated 2024) can be followed below.

In experiment [1] the target is human TLR8 (Homo sapiens, UniProt Q9NR97). Description: TLR8 inhibition reporter assay (HEK-Blue cells, SEAP reporter, R848 stimulation). To be noted: read-out: TLR8 IC50; HEK-Blue cells overexpressing human TLR8, SEAP reporter, R848 15.9 μM. The procedure:
(§1) TLR7/8/9 Inhibition Reporter Assays
(§2) HEK-Blue™-cells (Invivogen) overexpressing human TLR7, TLR8 or TLR9 receptors were used for screening inhibitors of these receptors using an inducible SEAP (secreted embryonic alkaline phosphatase) reporter gene under the control of the IFN-β minimal promoter fused to five NF-κB and AP-1-binding sites. Briefly, cells are seeded into Greiner 384 well plates (15000 cells per well for TLR7, 20,000 for TLR8 and 25,000 for TLR9) and then treated with test compounds in DMSO to yield a final dose response concentration range of 0.05 nM-50 μM. After a 30 minute compound pre-treatment al room temperature, the cells are then stimulated with a TLR7 ligand (gardiquimod at a final concentration of 7.5 μM), TLR8 ligand (R848 at a final concentration of 15.9 μM) or TLR9 ligand (ODN2006 at a final concentration of 5 nM) to activate NF-κB and AP-1 which induce the production of SEAP. After a 22 hour incubation at 37° C., 5% CO2, SEAP levels are determined with the addition of HEK-Blue™ Detection reagent (Invivogen), a cell culture medium that allows for detection of SEAP, according to manufacturer's specifications. The percent inhibition is determined as the % reduction in the HEK-Blue signal present in wells treated with agonist plus DMSO alone compared to wells treated with a known inhibitor.
Background: A reporter such as luciferase makes a cellular process visible.

Experiment [2] has as its target human TLR7 (Homo sapiens, UniProt Q9NYK1). Description: TLR7 inhibition reporter assay (HEK-Blue cells, SEAP reporter, gardiquimod stimulation). To be noted: read-out: TLR7 IC50; HEK-Blue cells overexpressing human TLR7, SEAP reporter, gardiquimod 7.5 μM. The procedure:
as §1, §2

For experiment [3], the target named is human TLR9 (Homo sapiens, UniProt Q9NR96). Kind of experiment: TLR9 inhibition reporter assay (HEK-Blue cells, SEAP reporter, ODN2006 stimulation). Type of experiment: cell-based. The following applies: read-out: TLR9 IC50; HEK-Blue cells overexpressing human TLR9, SEAP reporter, ODN2006 5 nM. The procedure: as §1, §2

As to `Cc1c(-c2[nH]c3ccc(C4CCCN(CC(C)(C)O)C4)cc3c2C(C)C)cn2ncnc2c1C` (stereo not drawn), the IC50 worked out at 5.1 nM in experiment [1], 19 nM in experiment [2] and 5860 nM in experiment [3].
As for `COc1ccc(-c2[nH]c3ccc(C4CCC5CC(C4)N5C(=O)CN(C)C)cc3c2C(C)C)cc1OC` (stereo not drawn), the IC50 in experiment [1] was 111 nM; in experiment [2], 15 nM; in experiment [3], 1160 nM.
For `Cc1c(-c2[nH]c3ccc(C4CN(CCNS(C)(=O)=O)C4)cc3c2C(C)C)cn2ncnc2c1C`, in that order: 2.1 nM, 2 nM and 2550 nM.
For `Cc1c(-c2[nH]c3ccc(C4CC(NC(=O)CN(C)C)C4)cc3c2C(C)C)cn(C)c(=O)c1C` (stereo not drawn) [Example 490], in that order: 4.7 nM, 20 nM and over 50000 nM.
For `COc1cc(-c2[nH]c3ccc(C4CN(CC(=O)N(C)C)CCO4)cc3c2C(C)C)cn2ncnc12` (stereo not drawn) [Example 314], in that order: 50 nM, 18 nM and over 50000 nM.
